Tested on: IFNγ-induced STAT1 phosphorylation (pSTAT1) in B16F10 cells
Assay: B16F10 Phospho-STAT1 HTRF proximal pharmacodynamic (PD) assay
Settings: read-out: pSTAT1 EC50, Table 3, chromane comparator
Description: Example III-3: B16F10 (Murine Melanoma Cells) Phospho-STAT1 HTRF Proximal Pharmacodynamic (PD) Assay
B16F10 cells were grown and maintained in high glucose DMEM (Gibco, Catalog^#11965-092, Dun Laoghaire Co Dublin) supplemented with 10% fetal bovine serum (Gibco, Catalog^#10082-139, Dun Laoghaire Co Dublin). The cells were pelleted and resuspended in high glucose DMEM without phenol red (Gibco, Catalog^#11054-020, Dun Laoghaire Co Dublin), supplemented with 10% fetal bovine serum and plated in a 384 well Corning plate (product^#3765, Corning, NY) at 11,000 cells per well in a volume of 20 μL. The cells were dosed with the compounds of interest using an Echo Liquid Handler (Beckman Coulter, Brea, CA) at 50 μM top dose with 3-fold dilutions down to 0.002679 μM for a 10-point dose response. The plate was incubated for 3 hours at 37° C. and subsequently treated with recombinant mouse IFNγ (R&D Systems, Catalog^#485-MI, Minneapolis, MN; 100 nM final concentration) for 10 minutes at 37° C. to induce STAT1 phosphorylation followed by 3.3 μM staurosporine treatment for 1 hour at 37° C. to terminate phosphorylation. […] The plate was incubated for 3 hours at room temperature and read on an EnVision® (Perkin Elmer) plate reader with laser excitation at 335 nm and emission at 665 nm. […]

EC50 | SMILES
3.6 µM | O=C1CN(c2c(O)cc3c(c2F)C[C@H](NCCCC(F)F)CO3)S(=O)(=O)N1
> 50 µM | O=C1CN(c2c(O)cc3c(c2F)C[C@H](NCCCOCC(F)F)CO3)S(=O)(=O)N1
